The values below come from PubChem BioAssay AID463082 (The Scripps Research Institute Molecular Screening Center, 2010).

Amino acid sequences for entries named in this document (tags omitted).
UniProt Q13093, whole entry: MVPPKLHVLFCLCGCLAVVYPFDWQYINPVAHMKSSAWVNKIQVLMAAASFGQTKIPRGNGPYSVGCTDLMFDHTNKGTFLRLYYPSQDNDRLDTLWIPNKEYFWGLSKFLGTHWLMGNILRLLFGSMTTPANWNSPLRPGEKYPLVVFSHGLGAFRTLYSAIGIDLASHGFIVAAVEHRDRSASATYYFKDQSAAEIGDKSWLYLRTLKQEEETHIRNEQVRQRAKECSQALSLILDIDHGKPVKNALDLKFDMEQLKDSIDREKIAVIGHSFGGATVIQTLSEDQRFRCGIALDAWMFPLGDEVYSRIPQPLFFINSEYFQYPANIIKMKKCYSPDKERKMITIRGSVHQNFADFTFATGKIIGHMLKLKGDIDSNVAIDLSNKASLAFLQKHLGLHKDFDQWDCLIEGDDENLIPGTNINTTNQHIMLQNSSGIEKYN

What is called inhibition is the change of the read-out against control, counted positive when it falls.

The list shows a part of the results, in another mix than the full data. Active and inactive are the calls of the source.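 The calls were made as follows: active = inhibition above the mean inhibition across the screen plus 3 SD (cut at about 25% in these data); inactive = the rest.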

The assay has as its target Platelet-activating factor acetylhydrolase (Homo sapiens) (UniProt Q13093). Briefly: pPAFAH enzyme inhibitors, primary screen, biochemical, fluorescence polarization, human (AID 463082).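 Also: inhibitors block binding of the rhodamine activity-based probe so polarization drops; 0% = enzyme with DMSO and 100% = wells lacking pPAFAH.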 The following applies: recombinant pPAFAH, FP-rhodamine probe fluorescence polarization; at 3.39 µM; stronger effect = higher value.
On to `CCC(=O)N(c1ccccc1)C1(COC)CCN(CCn2nnn(CC)c2=O)CC1`, for which the inhibition was inactive: -1.4%.

On to `CCC(=O)N(c1ccccc1)C1(COC)CCN(CCc2cccs2)CC1`, for which the inhibition is inactive: -5.03%.
